{"sequences": {"note": "Sequences of proteins named here, by UniProt entry; tags and fusion partners are left off. A change or cut given only in a name is not applied to a line headed by its entry.", "UniProt O95977": "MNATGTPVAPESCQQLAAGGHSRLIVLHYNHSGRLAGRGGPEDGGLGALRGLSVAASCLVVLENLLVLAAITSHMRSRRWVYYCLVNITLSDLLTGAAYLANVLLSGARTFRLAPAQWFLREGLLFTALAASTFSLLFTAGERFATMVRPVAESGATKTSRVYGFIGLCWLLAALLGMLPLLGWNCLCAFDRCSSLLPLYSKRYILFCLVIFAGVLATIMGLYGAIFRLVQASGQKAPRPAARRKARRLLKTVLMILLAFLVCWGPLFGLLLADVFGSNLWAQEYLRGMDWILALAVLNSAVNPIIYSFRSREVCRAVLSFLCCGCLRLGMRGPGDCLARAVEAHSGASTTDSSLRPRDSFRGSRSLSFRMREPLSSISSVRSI"}, "source": "PubChem BioAssay AID1509", "about": "(The Scripps Research Institute Molecular Screening Center, 2009)", "note": "The list shows a part of the results, in another mix than the full data. Active and inactive are the calls of the source. Rule as the data show it: active = activation above about 11%; inactive = the rest.", "data": [{"target": "Sphingosine 1-phosphate receptor 4 (Homo sapiens) (UniProt O95977)", "test": "S1P4 receptor agonists, primary screen, cell-based (AID 1509);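 also: 0% = DMSO vehicle and 100% = reference agonist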", "settings": "S1P4-expressing cell line, agonist reporter assay; at 4.98 µM; active compounds read high", "values": [{"smiles": "O=P(Nc1nc2ccc(Cl)cc2s1)(c1ccccc1)c1ccccc1", "activation": "inactive: 1.36%"}, {"smiles": "CC(C)CC(=O)NC(Sc1ccc(Cl)cc1)C(Cl)(Cl)Cl", "note": "(configuration not stated)", "activation": "inactive: -0.3%"}, {"smiles": "Nc1cc(N)c2nonc2c1[N+](=O)[O-]", "activation": "inactive: 0.34%"}, {"smiles": "Cc1c2non([O-])c-2c(C)[n+](=O)[n+]1[O-]", "activation": "inactive: 0.59%"}, {"smiles": "O=C(NC(Sc1ccncn1)C(Cl)(Cl)Cl)c1ccccc1", "note": "(configuration not stated)", "activation": "inactive: -0.26%"}, {"smiles": "Oc1ccccc1CNc1ccccn1", "activation": "inactive: -0.02%"}, {"smiles": "Cc1ccc(OP(=O)(Nc2nccs2)Oc2ccc(C)cc2)cc1", "activation": "inactive: -1.18%"}, {"smiles": "COc1ccccc1OP(=O)(Nc1ccc(C)cn1)Oc1ccccc1OC", "activation": "inactive: -1.44%"}, {"smiles": "Clc1ccc(Cl)c(NC2=NCC(CBr)S2)c1", "note": "(configuration not stated)", "activation": "inactive: 4.63%"}, {"smiles": "CN1CCCC(OC(=O)C(c2ccccc2)c2ccccc2)C1", "note": "(configuration not stated)", "activation": "inactive: -1.47%"}, {"smiles": "NC(=O)c1cc([N+](=O)[O-])cc([N+](=O)[O-])c1N", "activation": "inactive: 0.5%"}, {"smiles": "Cc1ccc(N/C(=N/P(=O)(N2CCOCC2)N2CCOCC2)N2CCOCC2)cc1", "activation": "inactive: 0.11%"}, {"smiles": "CN(C)C(=O)OCCc1n(C)cc[n+]1C", "activation": "inactive: 1.52%"}, {"smiles": "CC(C)=N/N=C(\\N)N[N+](=O)[O-]", "activation": "inactive: -0.35%"}, {"smiles": "CC1CCN(C(=O)Oc2c(Cl)cc(Cl)c3cccnc23)CC1", "activation": "inactive: 0.38%"}, {"smiles": "C[N+]1=C2C=CC=CC=C2SC12C([N+](=O)[O-])=CC([N+](=O)[O-])=C[C-]2[N+](=O)[O-]", "note": "(configuration not stated)", "activation": "inactive: -0.74%"}, {"smiles": "Nc1ccc([As](=O)(O)c2ccc(N)cc2)cc1", "activation": "inactive: 0.51%"}, {"smiles": "CCN(/C(=N/P(=O)(N1CCOCC1)N1CCOCC1)N1CCOCC1)c1ccc(OC)cc1", "activation": "inactive: -0.76%"}, {"smiles": "O=[N+]([O-])c1cccc2n[nH]nc12", "activation": "inactive: 0.14%"}, {"smiles": "CC(=O)N1C2C3N(C(C)=O)C1C1N(C(C)=O)C(C(N1C(C)=O)N3C(C)=O)N2C(C)=O", "activation": "inactive: -1.14%"}, {"smiles": "CCc1nc2c(n1)c1c(non1O)c1c2no[n+]1[O-]", "activation": "inactive: -1.64%"}, {"smiles": "O=[N+]([O-])c1cc([N+](=O)[O-])c(CCNc2ccccc2)c([N+](=O)[O-])c1", "activation": "inactive: 0.88%"}, {"smiles": "Cc1ccc(NP(=O)(Oc2ccccc2)Oc2ccccc2)nc1", "activation": "inactive: 0.84%"}, {"smiles": "COc1ccc(C2=NCC(CBr)S2)cc1", "note": "(configuration not stated)", "activation": "inactive: -0.79%"}, {"smiles": "O=[N+]([O-])c1cccc(NC2=NCC(CBr)S2)c1", "note": "(configuration not stated)", "activation": "inactive: 0.03%"}, {"smiles": "O=C(O)CNc1ccc([As](=O)(O)O)cc1", "activation": "inactive: -1.41%"}, {"smiles": "CC(C)(C)C(=O)NC(Sc1ccncn1)C(Cl)(Cl)Cl", "note": "(configuration not stated)", "activation": "inactive: -1.6%"}, {"smiles": "O=[N+]([O-])c1ncn(CCn2ncnc2[N+](=O)[O-])n1", "activation": "inactive: 1.45%"}, {"smiles": "O=C(Nc1cc([As](=O)(O)O)ccc1O)c1ccccc1", "activation": "inactive: 1.51%"}, {"smiles": "Nc1ccc([As](=O)(O)c2ccc([N+](=O)[O-])cc2)cc1", "activation": "inactive: -0.53%"}, {"smiles": "C(Cc1nn[nH]n1)Cc1nn[nH]n1", "activation": "inactive: 0.58%"}, {"smiles": "O=C(OC1CN2CCC1CC2)c1cccc(Cl)c1", "note": "(configuration not stated)", "activation": "inactive: 0.33%"}, {"smiles": "O=[N+]([O-])c1ncn(CCn2cnc([N+](=O)[O-])n2)n1", "activation": "inactive: -0.26%"}, {"smiles": "CC(=O)NC(SC(=S)N(C)C)C(Cl)(Cl)Cl", "note": "(configuration not stated)", "activation": "inactive: 3.18%"}, {"smiles": "O=[As](O)(c1ccccc1)c1ccc(O)cc1", "activation": "inactive: 1.64%"}, {"smiles": "O=P(Nc1nc2ccccc2s1)(c1ccccc1)c1ccccc1", "activation": "inactive: -0.6%"}, {"smiles": "O=P(Nc1ccccn1)(c1ccc(Br)cc1)c1ccc(Br)cc1", "activation": "inactive: -0.28%"}, {"smiles": "c1nnnn1CCn1cnnn1", "activation": "inactive: -0.7%"}, {"smiles": "CC(C)C(=O)NC(Sc1ccccc1)C(Cl)(Cl)Cl", "note": "(configuration not stated)", "activation": "inactive: 3.29%"}, {"smiles": "O=P(Nc1nccs1)(c1ccccc1)c1ccccc1", "activation": "inactive: -1.15%"}, {"smiles": "CC(=O)Nc1ccc(Oc2c([N+](=O)[O-])cc([N+](=O)[O-])cc2[N+](=O)[O-])cc1", "activation": "inactive: 0.14%"}, {"smiles": "CC(=O)Nc1ccc([As](=O)(O)O)c(O)c1", "activation": "inactive: 0.44%"}, {"smiles": "CC(C)(C)C(=O)NC(Sc1ccccc1)C(Cl)(Cl)Cl", "note": "(configuration not stated)", "activation": "inactive: -0.01%"}, {"smiles": "CCOc1ccc(C2=NCC(CBr)S2)cc1", "note": "(configuration not stated)", "activation": "inactive: -0.34%"}, {"smiles": "O=P1(Nc2nc3ccc(Cl)cc3s2)COc2ccccc2O1", "note": "(configuration not stated)", "activation": "inactive: -0.23%"}, {"smiles": "CN(C)C(=O)Oc1noc2ccccc12", "activation": "inactive: -1.84%"}, {"smiles": "O=c1c2cc([N+](=O)[O-])ccc2[nH]c2c([N+](=O)[O-])cc([N+](=O)[O-])cc12", "activation": "inactive: -0.43%"}, {"smiles": "Cc1ccccc1OP(=O)(Nc1ccccn1)Oc1ccccc1C", "activation": "inactive: -1.24%"}, {"smiles": "Cc1ccc(OP(=O)(Nc2ccccn2)Oc2ccc(C)cc2)cc1", "activation": "inactive: -0.88%"}, {"smiles": "CC(=O)NC(SC(=S)N(CC(C)C)CC(C)C)C(Cl)(Cl)Cl", "note": "(configuration not stated)", "activation": "inactive: -1.6%"}, {"smiles": "COC(=O)c1cc2c(s1)N=C(c1ccccc1)N(C)P2(=O)N1CCOCC1", "note": "(configuration not stated)", "activation": "inactive: -0.62%"}, {"smiles": "CCC(=O)N1C2C3N(C(=O)CC)C1C1N(C(=O)CC)C(C(N1C(=O)CC)N3C(=O)CC)N2C(=O)CC", "activation": "inactive: 1.98%"}, {"smiles": "CCNC(=S)/N=C(\\N)N[N+](=O)[O-]", "activation": "inactive: -1.06%"}, {"smiles": "O=C(NC1CCS(=O)(=O)C1)NP(=S)(Oc1ccccc1)Oc1ccccc1", "note": "(configuration not stated)", "activation": "inactive: 0.91%"}, {"smiles": "CCOC(=O)NC(Sc1ccccc1)C(Cl)(Cl)Cl", "note": "(configuration not stated)", "activation": "inactive: 1.79%"}, {"smiles": "Cc1ccc(NP(=O)(Oc2cccc(C)c2)Oc2cccc(C)c2)nc1", "activation": "inactive: -0.55%"}, {"smiles": "c1ccc(-c2nn[nH]n2)c(-c2nn[nH]n2)c1", "activation": "inactive: 0.34%"}]}]}
